Results on one molecule are retold here after US20060093562A1 (priority 2004, published 2006).

The nature of the data set: Solubility of SDS in glycerin/water solutions of potassium bicarbonate, potassium carbonate or sodium carbonate. The format is physicochemical. Conditions: 134.06 g glycerin, 46.54 g water, 9.00 g potassium carbonate, room temperature, 100° F., and 122° F.

For the molecule `CCCCCCCCCCOS(=O)(=O)[O-].[Na+]` [SDS, Sodium Decyl Sulfate], the “Appearance of solution after SDS addition” value was “turbid”.
